How the values were obtained:
[1] = biological target: T1, α-1A adrenoreceptor (canine prostate smooth muscle) (Canis lupus, UniProt A0A8I3NK63); assay: Functional antagonism: inhibition of phenylephrine-induced contraction of canine prostate strips; details: Schild plot
T1 sequence (A0A8I3NK63 1-466): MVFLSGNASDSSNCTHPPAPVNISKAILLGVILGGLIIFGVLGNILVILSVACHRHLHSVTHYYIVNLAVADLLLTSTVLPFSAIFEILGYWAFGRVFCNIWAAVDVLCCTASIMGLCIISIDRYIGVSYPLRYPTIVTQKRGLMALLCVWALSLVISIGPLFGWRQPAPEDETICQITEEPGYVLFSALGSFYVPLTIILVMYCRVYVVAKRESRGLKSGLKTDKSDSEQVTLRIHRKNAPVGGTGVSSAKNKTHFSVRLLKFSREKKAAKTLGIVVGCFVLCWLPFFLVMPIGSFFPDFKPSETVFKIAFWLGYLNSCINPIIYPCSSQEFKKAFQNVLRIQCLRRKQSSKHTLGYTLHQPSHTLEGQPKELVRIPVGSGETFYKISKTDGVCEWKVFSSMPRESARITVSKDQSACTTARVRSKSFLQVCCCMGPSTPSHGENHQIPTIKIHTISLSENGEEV

The chains behind the UniProt entries cited, without tags or fusion partners.
UniProt P23944, whole entry: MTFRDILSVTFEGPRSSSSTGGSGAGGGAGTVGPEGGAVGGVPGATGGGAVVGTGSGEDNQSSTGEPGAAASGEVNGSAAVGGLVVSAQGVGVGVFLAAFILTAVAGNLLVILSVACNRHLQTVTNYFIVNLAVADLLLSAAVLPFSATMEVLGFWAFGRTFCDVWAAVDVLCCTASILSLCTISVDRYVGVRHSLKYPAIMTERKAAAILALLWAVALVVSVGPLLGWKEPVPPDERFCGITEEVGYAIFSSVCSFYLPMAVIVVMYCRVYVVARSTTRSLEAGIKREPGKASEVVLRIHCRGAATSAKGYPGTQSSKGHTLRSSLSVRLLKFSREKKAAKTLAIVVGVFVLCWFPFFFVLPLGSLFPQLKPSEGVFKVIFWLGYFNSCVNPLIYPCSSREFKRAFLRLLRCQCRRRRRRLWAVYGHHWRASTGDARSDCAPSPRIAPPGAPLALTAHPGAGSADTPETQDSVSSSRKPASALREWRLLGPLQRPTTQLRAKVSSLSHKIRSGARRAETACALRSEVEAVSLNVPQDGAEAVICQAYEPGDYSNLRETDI

[2] = biological target: α-1 Adrenoceptors (Rat Aorta) (Rattus norvegicus, UniProt P23944); assay: Functional antagonism at α-1 adrenoceptors, rat aorta

| SMILES | In Vitro Characterization (pA2) Dog Prostate [1] | In Vitro Characterization (pA2) Rat Aorta [2] |
| --- | --- | --- |
| COc1cc2nc(N3CCN(C(=O)c4ccco4)CC3)nc(N)c2cc1OC [Prazosin, prazosin] | 8.46 | – |
| COc1cc2nc(N3CCN(C(=O)C4COc5ccccc5O4)CC3)nc(N)c2cc1OC (centres unmarked) [Doxazosin, doxazosin] | – | 8.97 |

Reference: US5891882A, “Benzopyranopyrrole and benzopyranopyridine α-1 adenergic compounds” (priority 1997, dated 1999)
